Read-outs that look alike come from different tables or passages of the source.
Assays:
PIM2 = PIM2 (Homo sapiens, UniProt Q9P1W9); experiment: LANCE Ultra kinase assay, PIM2; assay type: biochemical
Huh7 = experiment: CellTiter-Glo cancer cell growth inhibition, Huh7; assay type: cell-based; details: read-out: EC50 Huh7, 72 hours
HepG2 = experiment: CellTiter-Glo cancer cell growth inhibition, HepG2; assay type: cell-based, human; details: read-out: EC50 HepG2, 72 hours
A673 = experiment: CellTiter-Glo cancer cell growth inhibition, A673; assay type: cell-based; details: read-out: EC50 A673, 72 hours
PIM1 = PIM1 (Homo sapiens, UniProt P11309); experiment: LANCE Ultra kinase assay, PIM1; assay type: biochemical
PIM3 = PIM3 (Homo sapiens, UniProt Q86V86); experiment: LANCE Ultra kinase assay, PIM3; assay type: biochemical
DU-145 = experiment: CellTiter-Glo cancer cell growth inhibition, DU-145; assay type: cell-based; details: read-out: EC50 DU-145, 72 hours
[1] = read-out: IC50 PIM2, ATP 0.1 mM
[2] = read-out: IC50 PIM1, ATP 0.1 mM
[3] = read-out: IC50 PIM3, ATP 0.1 mM

Protein sequences, listed by entry. Tags and fused reporters are not part of them.
UniProt Q9P1W9, whole entry: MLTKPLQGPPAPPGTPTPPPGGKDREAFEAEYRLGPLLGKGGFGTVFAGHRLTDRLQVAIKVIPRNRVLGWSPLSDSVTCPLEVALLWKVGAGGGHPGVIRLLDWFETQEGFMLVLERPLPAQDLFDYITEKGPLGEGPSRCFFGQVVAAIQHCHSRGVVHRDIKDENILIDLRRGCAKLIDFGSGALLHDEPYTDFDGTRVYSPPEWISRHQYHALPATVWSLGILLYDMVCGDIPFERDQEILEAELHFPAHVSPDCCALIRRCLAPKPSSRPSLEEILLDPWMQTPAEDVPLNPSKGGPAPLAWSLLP
UniProt P11309, whole entry: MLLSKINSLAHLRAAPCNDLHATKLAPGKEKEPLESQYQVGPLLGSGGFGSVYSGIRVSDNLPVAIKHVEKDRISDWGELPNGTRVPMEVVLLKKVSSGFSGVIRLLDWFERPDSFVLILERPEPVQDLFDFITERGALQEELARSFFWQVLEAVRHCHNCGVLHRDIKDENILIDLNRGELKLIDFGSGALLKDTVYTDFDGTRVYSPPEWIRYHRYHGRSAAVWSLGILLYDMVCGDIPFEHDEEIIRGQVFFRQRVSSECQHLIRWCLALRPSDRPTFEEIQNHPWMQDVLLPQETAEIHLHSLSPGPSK

Compound	IC50 (PIM2; [1]) [nM]	IC50 (PIM2; read-out: IC50 PIM2, ATP 1 mM) [nM]	EC50 (Huh7) [nM]	EC50 (HepG2) [nM]	EC50 (A673) [nM]	IC50 (PIM1; [2]) [nM]	IC50 (PIM1; read-out: IC50 PIM1, ATP 1 mM) [nM]	IC50 (PIM3; [3]) [nM]	IC50 (PIM3; read-out: IC50 PIM3, ATP 1 mM) [nM]	EC50 (DU-145) [nM]
O=C1NC(=O)c2c1c1c3cc(F)c(O)cc3[nH]c1c1c2c2ccncc2n1CCN1CCOCC1	5	0.23	14	25	6.2	0.32	0.33	0.21	2.15	13
O=C1NC(=O)c2c1c1c3ccncc3[nH]c1c1c2c2cc(F)c(O)cc2n1CCN1CCOCC1	39	0.24	50	85		0.23	0.26	0.21	1.34	11

— patent US20220274997A1, “PIM KINASE INHIBITOR COMPOSITIONS AND USES THEREOF” (Snap Bio, Inc., priority 2019, published 2022)
